Results as given in US20100286173A1 (priority 2008, published 2010).

test: Measurement of logP values by HPLC on reversed phase columns (EEC directive 79/831 Annex V.A8); type: physicochemical; details: pH 2.7, 0.1% formic acid in water / acetonitrile gradient 10% to 95%

In order of falling logp:
1. Cc1cc(C(=NOCc2cccc(NC(=O)CCC3CCCCC3)n2)c2nnnn2C)ccc1F [Example 54]  4.92
2. CCCCCOC(=O)Nc1cccc(CON=C(c2ccc(C(F)(F)F)c(F)c2)c2nnnn2C)n1 [Example 76]  4.92
3. CCCCCOC(=O)Nc1cccc(CON=C(c2cc(C(F)(F)F)ccc2Cl)c2nnnn2C)n1 [Example 80]  4.92
4. CCCCCC(=O)Nc1cccc(CON=C(c2ccc(Cl)c(C(F)(F)F)c2)c2nnnn2C)n1 [Example 77]  4.67
5. CCCCCOC(=O)Nc1cccc(CON=C(c2ccc(C)c(F)c2)c2nnnn2C)n1 [Example 95]  4.67
6. CCCCCC(=O)Nc1cccc(CON=C(c2ccc(OC(F)(F)F)cc2C)c2nnnn2C)n1 (single isomer, unassigned) [Example 105]  4.65
7. CCCCCOC(=O)Nc1cccc(CON=C(c2cccc(C(F)(F)F)c2F)c2nnnn2C)n1 [Example 25]  4.65
8. CCCCCOC(=O)Nc1cccc(CON=C(c2cc(C)cc(F)c2)c2nnnn2C)n1 [Example 93]  4.65
9. CCCCCOC(=O)Nc1cccc(CON=C(c2ccc(F)c(C)c2)c2nnnn2C)n1 [Example 94]  4.65
10. CCCCCC(=O)Nc1cccc(CON=C(c2ccc(C)c(C(F)(F)F)c2)c2nnnn2C)n1 [Example 50]  4.41
11. CC(C)CC(=O)Nc1cccc(CON=C(c2cc(F)cc(C(F)(F)F)c2)c2nnnn2C)n1 [Example 30]  4.01
12. CCCCCC(=O)Nc1cccc(CON=C(c2cc(C(F)(F)F)ccc2C)c2nnnn2C)n1 [Example 31]  4.01
13. Cc1ccc(C(=NOCc2cccc(NC(=O)CC(C)C)n2)c2nnnn2C)cc1C(F)(F)F [Example 68]  4.01

In the case of `Cc1cc(C(=NOCc2cccc(Br)n2)c2nnnn2C)ccc1F` [Example 160], the Log p is reported as 3.65.
